This note sets out measurements from PubChem BioAssay AID504651 (National Center for Advancing Translational Sciences (NCATS), 2011).

By UniProt entry, the sequences of proteins in these tests, tags left out.
UniProt P21728, whole entry: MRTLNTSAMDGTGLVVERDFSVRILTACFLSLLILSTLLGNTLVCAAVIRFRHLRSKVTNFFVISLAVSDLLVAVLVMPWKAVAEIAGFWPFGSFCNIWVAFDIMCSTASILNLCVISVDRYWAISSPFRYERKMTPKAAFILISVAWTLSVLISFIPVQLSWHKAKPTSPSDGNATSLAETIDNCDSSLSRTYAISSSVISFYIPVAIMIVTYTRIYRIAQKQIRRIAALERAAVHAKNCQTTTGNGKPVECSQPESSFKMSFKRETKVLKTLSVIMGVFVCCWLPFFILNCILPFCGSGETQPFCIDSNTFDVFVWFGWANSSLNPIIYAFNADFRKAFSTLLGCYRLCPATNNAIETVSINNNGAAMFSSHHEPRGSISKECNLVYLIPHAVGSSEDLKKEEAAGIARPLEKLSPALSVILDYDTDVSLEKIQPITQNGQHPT

Only a part is listed here, and it is no random draw. Calls of active or inactive are those of the source. No stated cut-off is given here; in the data, active means potentiation above about 30%; inactive means the rest.

This assay addresses D(1A) dopamine receptor (Homo sapiens) (UniProt P21728). Description: Potentiators of Human D1 Dopamine Receptor: qHTS. Further: 0% is about no effect. The note with it: HEK293 TREx D1 cells, calcium flux, dopamine EC20 potentiation; at 10 µM; active compounds read high. An excerpt: Dopamine receptors (DARs) are involved in the etiology and/or therapy of a number of neuropsychiatric and endocrine disorders. For instance, all receptor-based antiparkinsonian drugs work via stimulating the D1 DAR subtype whereas all FDA-approved antipsychotic agents are antagonists of this receptor. […] There are three different types of allosteric modulators that we are seeking, two of which will stimulate or augment receptor signaling, allosteric agonists and potentiators, while the third, allosteric antagonists, will attenuate receptor signaling. The present primary screening assay measures compound potentiation of an EC20 dopamine response by tracking calcium flux in a […], inducible Hek293 Trex D1 cell line.
NIH Chemical Genomics Center [NCGC]
NIH Molecular Libraries Probe Centers Network [MLPCN]
Assay Submitter (PI): David Sibley
Freshly passaged cells are plated in 1536 well black, clear bottom plates at a density of 4000 cells/well in 3 ul of complete media containing 1x tetracycline inducer. After an overnight incubation at 30 C in 5% CO2, cells are loaded with 2 ul of the no wash Calcium Assay Kit (ABD Bioquest) and incubated at room temperature for 30 to 90 minutes. A 10 cycle (1 second/cycle) baseline measurement is taken and then the FDSS online 1536 pintool delivers 23 nl of compound library (as well as dopamine controls) to the plate. The plate is measured for kinetically at 1 cycle/sec for 180 seconds and is considered to be the agonist portion of the assay (eg, compounds which activate a positive calcium response during this portion are flagged as potential agonists). Following the 180 second read, 1 ul of an EC20 of dopamine is delivered by an onboard pipette head. Measurements are taken kinetically for an additional 180 seconds.
Take `CCOC(=O)c1ccc(NP(C)(=O)Oc2ccc(Cl)cc2)cc1` (stereo not drawn): the potentiation is inactive: -0.9%. The same measure for `CP(=O)(OC12CC3CC(CC(C3)C1)C2)OC12CC3CC(CC(C3)C1)C2`: inactive: 0%; for `O=C(OCCCN1CCCC1)C(O)(c1ccccc1)C1CCCCC1` (stereo not drawn): inactive: 3.7%; for `COc1ccccc1OP(C)(=O)Nc1c(C)n(C)n(-c2ccccc2)c1=O` (stereo not drawn): inactive: -3.3%. The same measure for `CCc1ccc(OP(C)(=O)Nc2cccnc2)cc1` (stereo not drawn): inactive: 1.76%. The same measure for `CP(=O)(Oc1ccccc1)N1CCOC1=O` (stereo not drawn): inactive: -4.9%; for `COc1ccc(OP(C)(=O)Nc2ccc(Br)cc2)cc1` (stereo not drawn): inactive: -1.3%; for `CCN(CC)CC(O)COC(=O)C(O)(c1ccccc1)C1CCCCC1` (stereo not drawn): inactive: -3.4%. With `CN(C)C(=O)c1c([N+](=O)[O-])cc([N+](=O)[O-])cc1[N+](=O)[O-]`, the potentiation is inactive: -0.7%. On to `CC(C)(C)c1ccc(OP(C)(=O)O)cc1`, for which the potentiation was inactive: 1.75%. To `COc1ccccc1OP(C)(=O)Nc1ccccc1Br` (stereo not drawn) belongs inactive: -4.15%; to `CP(=O)(Nc1ccc(Cl)cc1)Oc1ccc(F)cc1` (stereo not drawn), inactive: -5.55%.

In the case of `COc1ccc(OP(C)(=O)Nc2ccccn2)cc1` (stereo not drawn), the potentiation was inactive: -4.05%.

Turning to `CN(C)CCOC(=O)C(O)(c1ccccc1)C1CCCC1` (stereo not drawn), the potentiation is inactive: -4.35%.

For the compound `COc1ccccc1OP(C)(=O)Nc1ccc(Br)cc1` (stereo not drawn), the potentiation was inactive: -4.4%. To `COc1ccccc1OP(C)(=O)Nc1ccc(C)cc1C` (stereo not drawn) belongs inactive: -3.65%. The same measure for `CP(=O)(Nc1ccccn1)Oc1ccccc1` (stereo not drawn): inactive: -0.2%; for `CCc1ccc(OP(C)(=O)O)cc1`: inactive: -1.05%. To `O=[N+]([O-])c1cc([N+](=O)[O-])c(Nc2ccccn2)c([N+](=O)[O-])c1` belongs inactive: -6.85%; to `Cc1c(NP(C)(=O)Oc2ccc(C(C)C)cc2)c(=O)n(-c2ccccc2)n1C` (stereo not drawn), inactive: -0.75%. `COc1ccccc1OP(C)(=O)Nc1ccc(C)c(C)c1` (stereo not drawn): the potentiation was inactive: -0.05%.

As to `COc1ccc(OP(C)(=O)Nc2ccccc2Br)cc1` (stereo not drawn), the potentiation was inactive: -6.75%. To `Cc1cc(C)cc(OP(C)(=O)Nc2cccc(C(F)(F)F)c2)c1` (stereo not drawn) belongs inactive: -2.95%. To `CP(=O)(OCCOc1ccccc1)OCCOc1ccccc1` belongs inactive: -7.44%; to `CP(=O)(Nc1ccc(Cl)cc1Cl)Oc1ccccc1` (stereo not drawn), inactive: -1.85%; to `Cc1nc2ccc3ccccc3c2o1.O=[N+]([O-])c1cc([N+](=O)[O-])c(O)c([N+](=O)[O-])c1`, inactive: -0.718%. The same measure for `CCOC(=O)c1ccc(NP(C)(=O)Oc2ccc(F)cc2)cc1` (stereo not drawn): inactive: -0.15%; for `COc1ccc(OP(C)(=O)Nc2ccc(SC(F)(F)F)cc2)cc1` (stereo not drawn): inactive: -4.2%; for `CP(=O)(Nc1ccccc1)Oc1ccc(F)cc1` (stereo not drawn): inactive: -0.15%. In the case of `CCCCCOc1ccc(NP(C)(=O)Oc2ccc(Cl)cc2Cl)cc1` (stereo not drawn), the potentiation is inactive: 17.1%.

As to `CCN(CC)CCCOC(=O)C(O)(c1ccccc1)C1CCCCC1` (stereo not drawn), the potentiation is inactive: 1.55%. For `CP(=O)(Nc1ccccc1F)Oc1ccccc1` (stereo not drawn), the potentiation was inactive: -1.45%. On to `CC(C)c1ccc(OP(C)(=O)Nc2ccc(SC(F)(F)F)cc2)cc1` (stereo not drawn), for which the potentiation is inactive: -13.7%. The same measure for `O=C(OCCN1CCN(CCOCc2ccccc2)CC1)C(O)(c1ccccc1)c1ccccc1`: inactive: -3.7%.

Consider `CCOP(C)(=S)SCC(=O)NC(C)(CC)C(=O)O` (stereo not drawn), for which the potentiation was inactive: -6.5%. With `CP(=O)(Nc1ccc(SC(F)(F)F)cc1)Oc1ccc(F)cc1` (stereo not drawn), the potentiation is inactive: -5.5%.

Turning to `Cc1ccccc1NP(C)(=O)Nc1ccccc1C`, the potentiation was inactive: -3.6%. The same measure for `CP(=O)(Nc1ccc2c(c1)OCCO2)Oc1ccccc1` (stereo not drawn): inactive: -1.9%.

`CN(C)CCOC(=O)C(O)(c1ccccc1)C1CCCCC1` (stereo not drawn): the potentiation was inactive: -0.7%. The same measure for `COc1ccc(NP(C)(=O)Oc2ccccc2OC)cc1` (stereo not drawn): inactive: -3.15%; for `COc1ccc(OP(C)(=O)Nc2cccc(Br)c2)cc1` (stereo not drawn): inactive: -3.41%. The same measure for `O=[N+]([O-])c1ccc(OP2(=O)COCCO2)cc1` (stereo not drawn): inactive: -4.55%; for `Cc1cc(-c2cccc3ccccc23)c(C)cn1.O=[N+]([O-])c1cc([N+](=O)[O-])c(O)c([N+](=O)[O-])c1`: inactive: -1.8%; for `O=[N+]([O-])c1cc([N+](=O)[O-])c(Nc2nnnn2CCO)c([N+](=O)[O-])c1`: inactive: 1.7%. To `CC1=C2N=C(C=C3N=C(C(C)=C4[N-][C@@](C)([C@@H]5N=C1[C@](C)(CCC(=O)NC[C@@H](C)OP(=O)([O-])O[C@H]1[C@@H](O)[C@@H](n6cnc7cc(C)c(C)cc76)O[C@@H]1CO)[C@H]5CC(N)=O)[C@@](C)(CC(N)=O)[C@@H]4CCC(N)=O)[C@@](C)(CC(N)=O)[C@@H]3CCC(N)=O)C(C)(C)[C@@H]2CCC(N)=O.[C-]#N.[Co+3]` belongs inactive: -1.05%; to `CP(=O)(Nc1ccc(SC(F)(F)F)cc1)Oc1ccccc1` (stereo not drawn), inactive: -0.35%. Regarding `CCCOc1ccc(NP(C)(=O)Oc2ccc(Cl)cc2)cc1` (stereo not drawn), the potentiation was inactive: -4.6%. To `CN1CCCCC1COC(=O)C1(O)c2ccccc2CCc2ccccc21` (stereo not drawn) belongs inactive: -1.6%. As for `COc1ccccc1OP(C)(=O)Nc1c(C)cccc1C` (stereo not drawn), the potentiation is inactive: 4.5%. To `O=[N+]([O-])c1cc([N+](=O)[O-])c(-n2nnc3ccccc32)c([N+](=O)[O-])c1` belongs inactive: -2.2%; to `Cc1nc2ccc3ccccc3c2s1.O=[N+]([O-])c1cc([N+](=O)[O-])c(O)c([N+](=O)[O-])c1`, inactive: -1.3%; to `CCOC(=O)c1ccc(NP(C)(=O)Oc2cc(C)cc(C)c2)cc1` (stereo not drawn), inactive: -6.05%. Take `Cc1cc(C)cc(OP(C)(=O)Nc2ccc(C)cc2C)c1` (stereo not drawn): the potentiation was inactive: 3.65%.

Take `COc1ccccc1OP(C)(=O)Nc1cccc(Br)c1` (stereo not drawn): the potentiation was inactive: -3.55%. The same measure for `Cc1ccc(C)c(NP(C)(=O)Oc2ccccc2)c1` (stereo not drawn): inactive: -10%; for `CP(=O)(Nc1cccc(Br)c1)Oc1ccccc1` (stereo not drawn): inactive: -2.2%.

On to `Cc1cc(C)cc(OP(C)(=O)Nc2ccccn2)c1` (stereo not drawn), for which the potentiation is inactive: 1.45%.

In the case of `CC1=NCCc2c1[nH]c1ccccc21.O=[N+]([O-])c1cc([N+](=O)[O-])c(O)c([N+](=O)[O-])c1`, the potentiation was inactive: -0.85%.
